assay: logP value by HPLC according to Donovan et al.; details: methanol/0.1% phosphoric acid pH 2

Row | Substance | logP value
1 | 7-[2-(2-carbamoyl-3,6-dioxocyclohexa-1,4-dienylamino)-2-(4-hydroxyphenyl)-acetylamino]-desacetoxycephalosporanic acid [1b] | 1.33
2 | 7-[2-(2-ethoxycarbonyl-3,6-dioxocyclohexa-1,4-dienylamino)-2-(4-hydroxyphenyl)-acetylamino]-desacetoxycephalosporanic acid [1d] | 1.76
3 | 7-{2-2-(2-hydroxyethylcarbamoyl)-3,6-dioxyocyclohexa-1,4-dienylamino]-2-(4-hydroxyphenyl)-acetylamino}-desacetoxycephalosporanic acid [1a] | 1.00
4 | 7-{2-[2-(2-hydroxyethylcarbamoyl)-3,6-dioxocyclohexa-1,4-dienylamino]-2-phenyl-acetylamino}-desacetoxycephalosporanic acid [1e] | 1.61

— patent US20110040086A1, “Novel Beta-Lactam Antibiotics, Methods for Their Production, and Their Use” (DRITTE PATENTPORTFOLIO BETEILIGUNGSGESELLSCHAFT MB, priority 2007, published 2011)
